This is an account of results in patent publication US20220204495A1, “INHIBITING TRABID” (Valo Health, Inc., priority 2019, published 2022).

Protein sequences, listed by entry. Tags and fused reporters are not part of them. Residues count along the entry.
UniProt Q9UGI0, 245-697 limits assumed: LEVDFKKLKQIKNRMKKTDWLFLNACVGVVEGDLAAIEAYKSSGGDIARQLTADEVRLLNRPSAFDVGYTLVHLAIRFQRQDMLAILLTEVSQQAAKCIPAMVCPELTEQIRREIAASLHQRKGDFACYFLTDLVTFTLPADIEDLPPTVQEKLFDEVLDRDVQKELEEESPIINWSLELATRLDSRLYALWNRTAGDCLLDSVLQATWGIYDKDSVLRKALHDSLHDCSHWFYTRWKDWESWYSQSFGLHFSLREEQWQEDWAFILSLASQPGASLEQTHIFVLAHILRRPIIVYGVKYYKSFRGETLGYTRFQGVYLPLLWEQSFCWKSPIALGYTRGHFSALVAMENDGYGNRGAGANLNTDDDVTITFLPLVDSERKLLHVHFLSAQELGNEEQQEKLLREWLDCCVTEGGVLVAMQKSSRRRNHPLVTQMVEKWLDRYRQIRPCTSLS

SMILES strings stand for the structures. pIC50: −log10 of the molar value.

This assay addresses TRABID(245-697) (Homo sapiens, UniProt Q9UGI0). Briefly: TRABID inhibition biochemical assay (Ub-Rh110MP fluorescence). The following applies: read-out: TRABID IC50; 10 nM TRABID(245-697), 25 nM Ub-Rh110MP, 30 minutes preincubation with compound, 10-point 3-fold series 26.6 μM to 1.35 nM. On the procedure:
TRABID enzymatic assays were performed in a final volume of 6 μL in buffer containing 20 mM Tris-HCl pH 8.0, (Corning 46-031-CM), and 1 mM GSH (Sigma, G4251), 0.03% BGG (Sigma, G7516), and 0.01% Triton X-100 (Sigma, 93443). Test compounds were serially diluted in DMSO (Sigma, G7516) to obtain 10-point, 3-fold series. Nanoliter quantities were pre-dispensed into 1536 assay plates (Corning, 9110BC) for the concentration response range, 26.6 μM to 1.35 nM. 3 μL of 2× enzyme was added to the assay plates, preincubated with compound for 30 minutes and then 3 μL of 2× substrate was added to initiate the reaction (10 nM TRABID(245-697) and 25 nM Ub-Rh110MP (UbiQ, UbiQ-126) final concentrations). Enzyme and substrate concentrations and incubation times were optimized for the maximal signal-to-background while maintaining linear initial velocity conditions at a fixed substrate concentration below Km.
Fluorescence signal was measured on an EnVision Plate Reader (PerkinElmer) equipped with 485 nm excitation filter and 535 nm emission filters.
Rates were calculated by: rate=((final FLU−initial FLU)/600 seconds) where final FLU=fluorescence at time 10 minutes, initial FLU=fluorescence at time 0 minutes and 600=duration of reaction in seconds.
Data were reported as percent inhibition compared with control wells based on the following equation: % inh=[…] where rate=measured rate of fluorescence generated during assay, AveLow=average rate of no enzyme control (n=32), and AveHigh=average rate of DMSO control (n=32).
IC50 values were determined by curve fitting of the standard 4 parameter logistic fitting algorithm included in the Activity Base software package (IDBS) using XE Designer equation Model 205. Data were fitted using the Levenburg Marquardt algorithm.
In general, pIC50 refers to the IC50 on a negative log10 scale, so that one unit is a factor of ten. On to `COc1cccc(-c2cc(C(=O)N3CC[C@H](CNC#N)C3)[nH]n2)c1`, for which the pIC50 is 5.46.

As to `COc1ccc(-c2cc(C(=O)N3CC[C@H](CNC#N)C3)[nH]n2)cc1`, the pIC50 was 5.53.

Turning to `COc1ccc(-c2cc(C(=O)N3CCO[C@@H](CNC#N)C3)[nH]n2)cc1`, the pIC50 was 5.07.

Take `COc1ccc(-c2cc(C(=O)N3CC[C@@]4(CC4NC#N)C3)[nH]n2)cc1` (some centres unmarked): the negative-log IC50 (pIC50) is 5.26.

Take `COc1cccc(-c2cc(C(=O)N3C[C@@H]4[C@H](C3)[C@H]4NC#N)[nH]n2)c1`: the pIC50 was 5.21.

For `COc1ccc(-c2cc(C(=O)N3CCC[C@H](CNC#N)C3)[nH]n2)cc1`, the pIC50 is 5.05.

For the compound `Cc1ccc(-c2cc(C(=O)N3CCC[C@H](CNC#N)C3)[nH]n2)cc1`, the negative-log IC50 (pIC50) is 5.28.

Consider `Cc1ccc(-c2cc(C(=O)N3CC[C@@]4(CC4NC#N)C3)[nH]n2)cc1` (some centres unmarked), for which the pIC50 was 5.30.

As for `COc1ccc(-c2cc(C(=O)N3C[C@@H]4[C@H](C3)[C@H]4NC#N)[nH]n2)cc1`, the negative logarithm of the IC50 (pIC50) was 5.19.

For the compound `Cc1ccc(-c2cc(C(=O)N3CC[C@H](CNC#N)C3)[nH]n2)cc1`, the pIC50 is 5.34.

As to `Cc1ccc(-c2cc(C(=O)N3C[C@@H]4[C@H](C3)[C@H]4NC#N)[nH]n2)cc1`, the pIC50 is 5.11.
